scFv variants of Ab-14 (light chain) against a SARS-CoV-2 spike peptide

From the AlphaSeq antibody data of Li et al. 2023 (doi:10.1038/s41467-023-39022-2), copy in the FLAb collection.

The target is the same throughout: PDVDLGDISGINAS, from the HR2 region of SARS-CoV-2 spike.

Parent scFv Ab-14: VH joined to VL by the linker GGGGSGGGGSGGGGS. Changes lie in the light chain CDRs alone.
VH: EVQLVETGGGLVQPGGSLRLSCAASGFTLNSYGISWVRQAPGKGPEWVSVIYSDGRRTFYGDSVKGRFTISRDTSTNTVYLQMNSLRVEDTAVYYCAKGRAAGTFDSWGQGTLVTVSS
VL: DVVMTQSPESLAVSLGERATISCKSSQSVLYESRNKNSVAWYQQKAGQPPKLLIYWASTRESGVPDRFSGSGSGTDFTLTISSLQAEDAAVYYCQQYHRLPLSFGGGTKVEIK

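Phage display of a naive human antibody library on the peptide gave the parent. This is the validation round: designs drawn from the data on random variants, tested in the same kind of assay. Their group label is 14L_GP_Gen (GP: Gaussian process model; Gen: genetic algorithm; a sequence that several methods proposed may carry one label only). Affinity was read by AlphaSeq, a pooled yeast mating assay with surface-displayed partners. Mating (16 h, 30 °C) was followed by selection of diploids and sequencing of their barcodes. Each replicate has its own calibration line, from reference interactions of the BCL2 family. The assay was run in six technical replicates.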

The parent's light chain CDRs are KSSQSVLYESRNKNSVA, WASTRES, QQYHRLPLS; each variant's own CDRs replace them letter for letter.
Affinities are written as log10 Kd with Kd in nM; a lower number is a better binder.
A mean of the replicates is given; it leaves out those without a signal.
Three control strains display no target. For all light chain designs, 4% of the pairings with them gave a signal, with a median of 2.64 and one signal in twenty below 1.59, so weak values seen in few replicates may be background. For each scFv, signals with the empty controls are counted beside the result, with their mean in brackets.
The authors averaged sequences with at least three values out of six and counted those with two or fewer as poor binders.
The range of this assay differs from that of the first round, and the authors advise against merging the two.

| # | CDR-L1 | CDR-L2 | CDR-L3 | log10 Kd, replicates | mean log10 Kd (nM) | signal with controls |
|---|---|---|---|---|---|---|
| 1 | KLSQSMLYESRNKNSVA | NASQREK | QQYHRLPLS | -0.18 / -0.21 / -0.25 / -0.47 / -0.35 / -0.12 | -0.26 | 3/18 (3.23) |
| 2 | KLSQSWLYESRNKNNVA | NASKRES | QQYHRLPLS | -0.47 / -0.55 / -0.66 / -0.70 / -0.57 / -0.27 | -0.54 | 1/18 (2.63) |
| 3 | KLPQSELYESRNKNSVA | NASTREQ | QQYHRLPLS | -0.20 / -0.36 / -0.55 / -0.59 / -0.39 / -0.33 | -0.40 | 2/18 (3.13) |
| 4 | KLPQSTLYESRNKNSVA | NASTREE | QQYHRLPLS | -0.09 / -0.28 / -0.25 / -0.48 / 0.08 / -0.13 | -0.19 | 0/18 |
| 5 | KLQQSWLYESRNKNSVA | NASTREQ | QQYHRLPLS | 0.22 / 0.21 / 0.17 / -0.20 / 0.12 / 0.21 | 0.12 | 1/18 (2.82) |
| 6 | KFEQSWLYESRNKNSVA | NASTRMS | QQYHRLPLS | -0.39 / -0.75 / -0.52 / -0.68 / -0.75 / -0.49 | -0.60 | 0/18 |
| 7 | KLSQSRLYESRNKNSVA | NASTRES | QQYHRLPLS | 0.18 / -0.17 / -0.13 / -0.08 / -0.17 / 0.08 | -0.05 | 2/18 (2.43) |
| 8 | KMEQSQLYESRNKNSVA | NASTRES | QQYHRLPLS | 0.44 / 0.23 / -0.08 / 0.24 / 0.36 / 0.34 | 0.26 | 1/18 (4.10) |
| 9 | KYSQSVLYESRNKNNVA | GASTRES | QQYHRLPLS | -0.09 / -0.09 / -0.25 / -0.13 / 0.13 / 0.01 | -0.07 | 0/18 |
| 10 | KLSQSVEYESRNKNSVA | NASTRMS | QQYHRLPLS | -0.20 / 0.01 / -0.27 / -0.24 / -0.26 / 0.05 | -0.15 | 0/18 |
| 11 | KLPQSTLYESRNKNSVA | NASTRMS | QQYHRLPLS | 0.02 / -0.02 / -0.04 / 0.16 / -0.30 / 0.20 | 0.00 | 0/18 |
| 12 | KVSQSELYESRNSNSVA | NASTRES | QQYHRLPLS | 0.33 / -0.05 / -0.16 / -0.21 / 0.07 / 0.08 | 0.01 | 1/18 (1.59) |
| 13 | KLQQSVLYESRNKNSVA | SASQRES | QQYHRLPLS | -0.08 / 0.05 / -0.12 / -0.31 / 0.07 / 0.35 | -0.01 | 0/18 |
| 14 | KVSQSALYESRNKNSVA | EASTRES | QQYHRLPLS | 0.56 / 0.16 / 0.38 / 0.43 / 0.37 / 0.43 | 0.39 | 0/18 |
| 15 | KLSQSWLYESRNKNNVA | NASQRED | QQYHRLPLS | 0.44 / 0.29 / 0.31 / 0.39 / 0.21 / 0.89 | 0.42 | 1/18 (2.89) |
| 16 | KLSQSVLYESRNKNNVA | NASTRLS | QQYHRLPLS | -0.26 / -0.41 / -0.46 / -0.35 / -0.48 / -0.32 | -0.38 | 0/18 |
| 17 | KVSQSNDYESRNKNSVA | NASTRES | QQYHRLPLS | 0.00 / 0.08 / -0.14 / -0.17 / -0.11 / 0.10 | -0.04 | 1/18 (3.57) |
| 18 | KLSQSVLYESRNKNSVA | HASQRCS | QQYHRLPLS | 0.02 / -0.12 / -0.14 / -0.26 / -0.21 / 0.10 | -0.10 | 1/18 (3.95) |
| 19 | KSSQSELYESRNKNSVA | NASQREQ | QQYHRLPLS | 0.02 / 0.05 / 0.16 / 0.02 / 0.36 / 0.00 | 0.10 | 0/18 |
| 20 | KLQQSWLYESRNKNSVA | NASYRLS | QQYHRLPLS | 0.51 / 0.51 / 0.58 / 0.32 / 0.56 / 0.67 | 0.53 | 2/18 (2.48) |
| 21 | KLSQSVLYESRQKNSVA | QASTRES | QQYHRLPLS | 0.06 / 0.06 / 0.22 / 0.09 / 0.35 / 0.22 | 0.17 | 1/18 (2.38) |
| 22 | KLSQSKLYESRNKNSVA | NASTRES | QQYHRLPLS | 0.30 / 0.31 / 0.62 / 0.37 / 0.42 / 0.90 | 0.49 | 0/18 |
| 23 | KLWQSQLYESRNKNSVA | NASQRLS | QQYHRLPLS | 0.01 / -0.16 / -0.16 / -0.24 / -0.24 / 0.02 | -0.13 | 2/18 (2.24) |
| 24 | KFSQSVLYESRNKNSVA | EASTREQ | QQYHRLPLS | 0.72 / 0.18 / 0.51 / 0.09 / 0.25 / 0.82 | 0.43 | 0/18 |
| 25 | KFSQSQLYESRNKNAVA | NASTRES | QQYHRLPLS | -0.53 / -0.69 / -0.34 / -0.74 / -0.69 / -0.48 | -0.58 | 0/18 |
| 26 | KLQQSVPYESRNKNSVA | HASTRES | QQYHRLPLS | -0.10 / -0.18 / -0.36 / -0.30 / -0.37 / -0.09 | -0.24 | 0/18 |
| 27 | KLSQSYLYESRVKNSVA | NASTRES | QQYHRLPLS | 0.95 / 0.40 / 0.32 / 0.71 / 0.23 / 0.57 | 0.53 | 0/18 |
| 28 | KLPQSVLYESRNKNSVA | NASTREM | QQYHRLPLS | -0.40 / -0.55 / -0.41 / -0.73 / -0.62 / -0.46 | -0.53 | 2/18 (2.23) |
| 29 | KLSQSVEMESRNKNSVA | NASTRES | QQYHRLPLS | -0.09 / -0.15 / -0.36 / -0.50 / -0.32 / 0.00 | -0.24 | 0/18 |
| 30 | KVSQSDPYESRNKNSVA | EASTRES | QQYHRLPLS | 0.21 / 0.07 / -0.13 / -0.35 / -0.16 / -0.05 | -0.07 | 1/18 (3.49) |
| 31 | KVSFSELYESRNKNSVA | EASTRES | QQYHRLPLS | 0.26 / 0.23 / 0.12 / 0.18 / -0.06 / 0.10 | 0.14 | 0/18 |
| 32 | KLSQSQLYESRNFNSVA | NASTRES | QQYHRLPLS | -0.11 / 0.31 / 0.04 / -0.09 / -0.25 / 0.08 | 0.00 | 2/18 (2.81) |
| 33 | KVEQSWLYESRNKNAVA | NASTRES | QQYHRLPLS | -0.52 / -0.62 / -0.63 / -0.87 / -0.50 / -0.62 | -0.62 | 1/18 (3.00) |
| 34 | KVSESNLYESRNKNSVA | NASTRES | QQYHRLPLS | 0.08 / 0.07 / -0.09 / -0.15 / -0.09 / -0.03 | -0.03 | 3/18 (2.73) |
| 35 | KLSQSVLYESRNKNSVA | HASTRMS | QQYHRLPLS | 0.24 / 0.21 / -0.05 / 0.28 / 0.37 / 0.04 | 0.18 | 0/18 |